The source of these data is PMC7312485, “Lessons on the Sigma-1 Receptor in TNBS-Induced Rat Colitis: Modulation of the UCHL-1, IL-6 Pathway” (International Journal of Molecular Sciences, 2020).

By UniProt entry, the sequences of proteins in these tests, tags left out.
UniProt Q9R0C9, whole entry: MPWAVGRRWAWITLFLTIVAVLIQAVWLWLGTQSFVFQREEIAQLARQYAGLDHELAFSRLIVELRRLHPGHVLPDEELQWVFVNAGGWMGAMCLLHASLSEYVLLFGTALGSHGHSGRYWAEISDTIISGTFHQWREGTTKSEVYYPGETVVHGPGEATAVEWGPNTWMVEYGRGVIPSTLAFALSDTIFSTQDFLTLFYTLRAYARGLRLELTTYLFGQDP

Values joined by “and” are separate entries in the source; they are usually repeats but may differ in a detail not shown here. Identical values can stand only once.

In the experiment the target is T1, sigma-1 receptor (σ1R) (Rattus norvegicus, UniProt Q9R0C9).
T1 construct: from tissue; host or cells: rat colon membrane homogenate (male Wistar–Harlan rats; control, TNBS, 50% EtOH, TNBS + FLV treated)
The experiment can be described thus: [3H](+)-pentazocine saturation binding in rat colon membranes. How it is done:
The homogenate was centrifuged at 17,000× g for 10 min (4 °C).
The incubation was terminated by diluting the samples with an ice-cold wash buffer (50 mM of Tris–HCl, pH 8.0), followed by repeated washing and rapid filtration through Whatman GF/B glass fiber filters (Whatman Ltd., Maidstone, UK) presoaked with 0.1% polyethyleneimine. Filtration was performed with a 24-well Brandel Cell Harvester (Gaithersburg, MD, USA). Filters were air-dried and immersed into Ultima Gold MV scintillation cocktail, and then radioactivity was measured with a TRI-CARB 2100TR liquid scintillation analyzer (Packard, Perkin Elmer, Waltham, MA, USA).
All data are presented as mean ± SEM. […] In competition binding studies, the inhibitory constants (Ki) were calculated from the inflection points of the displacement curves using nonlinear least-square curve fitting and the Cheng–Prusoff equation, Ki = EC50/(1 + [ligand]/Kd).

On to `CC(C)=CCN1CC[C@]2(C)c3cc(O)ccc3C[C@H]1[C@H]2C` [[^3H](+)-pentazocine], for which the “Bmax ± S.E.M., saturation binding (σ1R density)” value is 96 ± 5.2 fmol/mg (50% EtOH enema treated rat colon membranes); 126 ± 17 fmol/mg and 126 ± 15 fmol/mg (Abs. control rat colon membranes); 79 ± 6.5 fmol/mg (TNBS-induced colitis rat colon membranes); 134 ± 14 fmol/mg (TNBS-induced colitis rat colon membranes after 1 mg/kg FLV administration (TNBS + FLV)).
